Sampled rows, rich in hits. Any-hit rate of the full collection: about 13%.
LMNA splice mod: changes lamin A minigene splicing in HeLa cells. HeLa LMNA splicing GFP/RFP minigene ratio, 48 h. Potency, µM (doses to about 46.1 µM), inactives show at the top dose ratio change, negative = inhibition, most hits filed as inhibitors. 0.01% of 200,000 active; active = well fitted inhibition curve with a large enough effect in the signal ratio, with a control signal flat, not every such curve was filed as active; inconclusive = small, poorly fitted or top-dose-only effect, or effect the other way, or a change in a side signal; the % refers to the signal ratio; also: potency is read from the fitted curve at half-maximal effect; % is scaled to controls: 0 for no effect and ±100 for the full control effect
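S3 HeLa cells stably expressing lamin A-EGFP splicing minigene plus DsRed2, 600 cells/well, 48 h compound exposure at 37C. Laser-scanning cytometry; analysed as GFP (500-530 nm)/RFP (575-640 nm) total intensity ratio; 0.5% DMSO vehicle.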
JMJD2E inh: blocks human JMJD2E demethylase activity; JMJD2E catalytic domain, FDH-coupled NADH fluorescence (FDH is formaldehyde dehydrogenase); B2RXH2; 1.6% of 230,000 active; Potency, µM (highest dose often 57.1 µM), for inactives: at the highest dose activity change, negative = inhibition, actives largely listed as inhibitors; AID 2147; active = well fitted inhibition curve with a large enough effect, not every such curve was filed as active; inconclusive = small, poorly fitted or top-dose-only effect, or another doubt; inactive = no such curve, though single readings can be large or run the other way;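 also: potency is read from the fitted curve at half-maximal effect; 0% = wells with enzyme and -100% = buffer wells without enzyme; nearly all actives have a fitted effect of over 50% in size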
G9a inh: G9a (human) methyltransferase inhibition; 8.8% of 350,000 active; G9a H3K9 monomethylation, AlphaScreen, 2 h; Potency, µM (highest dose often 102 µM), for the others: top-dose activity, negative = inhibition, usual class: inhibitors; Q96KQ7; also: potency is read from the fitted curve at half-maximal effect; % is scaled to controls: 0 for no effect and ±100 for the full control effect; nearly all actives have a fitted effect of over 75% in size
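AlphaScreen detection with an anti-monomethyl H3K9 antibody quantified product after a 2 h room-temperature reaction containing 500 nM biotinylated H3K9 peptide, 20 µM SAM and 20 nM enzyme, which had been preincubated 15 min with compound.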
Sfp PPTase inh: qHTS Assay for Inhibitors of Bacillus subtilis Sfp phosphopantetheinyl transferase (PPTase). Biochemical Sfp PPTase activity, qHTS. Potency, µM, inactives show max response, negative = inhibition, most hits filed as inhibitors. hit rate 3.5% among 310,000. 4'-phosphopantetheinyl transferase ffp (Bacillus subtilis), Q9F4F7; active = well fitted inhibition curve with a large enough effect; inconclusive = small, poorly fitted or top-dose-only effect, or another doubt; inactive = no such curve, though single readings can be large or run the other way;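 note: the enzyme is Sfp with the accession as filed and its product quenches rhodamine fluorescence; potency is the fitted concentration of half-maximal effect; 0% = enzyme reaction without inhibitor and -100% = no enzyme wells; top concentration of the series not given in the record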
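Fluorescence-quenching assay with 15 nM Sfp, 5 uM rhodamine-CoA and 12.5 uM BHQ-2-labelled ybbR peptide in pH 7.6 Hepes/MgCl2 buffer. Enzyme was pre-incubated with compound for 15 min at room temperature. Rate was taken from the 30-min fluorescence change (525/598 nm).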
ALDH1A1 block: ALDH1A1 (human) enzyme inhibition; P00352; Purified ALDH1A1, NADH fluorescence, propionaldehyde substrate; Potency, µM (doses to about 75.3 µM), for the others: top-dose activity, negative = inhibition, actives largely listed as inhibitors; 7.3% of 220,000 active; active = well fitted inhibition curve with a large enough effect, not every such curve was filed as active; inconclusive = small, poorly fitted or top-dose-only effect, or another doubt; inactive = no such curve, though single readings can be large or run the other way;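 also: potency is read from the fitted curve at half-maximal effect; plate controls were no enzyme wells and a reference inhibitor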
miR-21 FLuc: miR-21 reporter, rising signal | HeLa miR-21 FLuc reporter, luciferase, 48 h | Potency, µM (top dose mostly 38.3 µM), inactives show at the top dose reporter change, positive = more light | 340,000 tested, under 10 active | AID 2288; active = well fitted rising curve with a large enough effect; inconclusive = small, poorly fitted or top-dose-only effect; inactive = no such curve, though single readings can be large or run the other way;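 further: % of control where 0% means no effect; miR-21 action dims this reporter so a rising signal means less miR-21 action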
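Compounds were titrated across several concentrations (up to approximately 40 uM) and incubated 48 hours with HeLa miR-21-FLuc reporter cells (miR-21 target sequence downstream of FLuc, endogenous miR-21). Readout was firefly luciferase luminescence after lytic detection reagent.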
* marks the source's active call; other numbers are inactive results; ? = inconclusive; . = no result; ! = not confirmed by another sample; [ ] = another dose, or the depositor's remark. Unless noted, calls follow the shape of the dose curve; as a rule, active = well fitted curve in the direction sought with a large enough effect; inconclusive = small, poorly fitted or top-dose-only effect, or another doubt; inactive = no such curve, though single readings can be large; an effect the other way counts as inactive or inconclusive.

Codes: A = LMNA splice mod; B = JMJD2E inh; C = G9a inh; D = Sfp PPTase inh; E = ALDH1A1 block; F = miR-21 FLuc
compound: O=C(NCc1cccnc1)c1ccc(NC(=O)c2ccc([N+](=O)[O-])cc2)cc1
  A: .; B: .; C: -13%; D: -5%; E: .; F: 9%
compound: CC(CSc1nc2ccccc2s1)Cn1c(N2CCCC2)nc2c1c(=O)[nH]c(=O)n2C (stereo unspecified)
  A: 1%; B: 6%; C: ?; D: -4%; E: 8%; F: -17%
compound: CC(C)CCn1c(Sc2nc3ccccc3s2)nc2c1c(=O)[nH]c(=O)n2C
  A: ?; B: 4%; C: 8%; D: 11%; E: 11µM*; F: -26%
compound: Cn1c(=O)[nH]c(=O)c2c1nc(SCC(=O)O)n2CCc1ccccc1
  A: -2%; B: -6%; C: ?; D: 45µM*; E: 6.3µM*; F: 0%
compound: CCCC1O[C@@H]2C[C@H]3[C@@H]4CCC5=CC(=O)C=C[C@]5(C)C4[C@@H](O)C[C@]3(C)[C@]2(C(=O)CO)O1 (stereo partly specified)
  A: ?; B: 1%; C: 23%[12.7 µM]; D: .; E: 6%; F: .
compound: O=C(Nc1cccc(Cl)c1)N1CCC(CN2CCOCC2)CC1
  A: 1%[46 µM]; B: .; C: -20%[59 µM]; D: .; E: .; F: -33%
compound: CSc1ccc(CNC(=O)Cn2ccc3cc(S(=O)(=O)N4CCCC4)ccc32)cc1
  A: .; B: .; C: -17%[59 µM]; D: .; E: .; F: 12%
compound: O=C(CCCn1ccc2cc(S(=O)(=O)N3CCCC3)ccc21)NCc1ccc(Cl)cc1
  A: .; B: .; C: -5%[59 µM]; D: .; E: .; F: ?
compound: CN(C)c1ccc(CNC(=O)CCCn2ccc3cc(S(=O)(=O)N4CCCC4)ccc32)cc1
  A: .; B: .; C: 8.9µM*; D: .; E: .; F: ?
compound: Cc1ccc(CNC(=O)Cn2ccc3cc(S(=O)(=O)N4CCCC4)ccc32)o1
  A: .; B: .; C: ?; D: 50µM*; E: .; F: 1%

Remaining list, next part.
Codes: A = LMNA splice mod; B = JMJD2E inh; C = G9a inh; D = Sfp PPTase inh; E = ALDH1A1 block; F = miR-21 FLuc
compound: COc1cccc2c1C(=O)CC(c1ccccc1)O2 (stereo unspecified)
  A: .; B: ?; C: .; D: -11%; E: ?; F: .
compound: COc1ccc(C(=O)c2ccccc2)c(O)c1O
  A: -15%; B: 22µM*; C: .; D: 56µM*; E: -3%; F: .
compound: COc1ccc(-n2cc(C(=O)c3ccccc3O)cn2)cc1
  A: .; B: ?; C: 77%; D: -26%; E: ?; F: 17%
compound: COc1cc(C(=O)c2ccccc2)c(OC)cc1C(=O)Nc1ccc(O)cc1
  A: ?; B: -9%; C: -15%; D: -5%; E: -3%; F: 3%
compound: COc1ccc(C(=O)c2ccc(C)cc2)c(O)c1
  A: .; B: .; C: 6%[12.7 µM]; D: 7%; E: .; F: .
compound: COc1ccc(O)c(C(=O)c2cnn(-c3ccccc3)c2)c1
  A: .; B: .; C: 4.5µM*; D: -1%; E: .; F: -56%
compound: COc1ccc(C(=O)c2ccccc2)c(O)c1
  A: ?; B: 9%; C: 5%[12.7 µM]; D: -22%; E: 32µM*!; F: -23%
compound: COc1ccc(S(=O)(=O)N2CCN(C(=O)c3ccco3)CC2)c(C)c1C
  A: .; B: .; C: -6%; D: 12%; E: .; F: 9%
compound: Cc1ccc(NN=C2c3ccccc3-c3ccccc32)cc1
  A: -3%; B: -29%; C: 8.9µM*; D: ?; E: ?; F: -47%
compound: Cc1ccc(OCC(=O)NN=C2c3ccccc3-c3ccccc32)cc1
  A: 3%; B: -2%; C: 10%[59 µM]; D: -4%; E: ?; F: -4%

3 structures out of the list, arranged by molar mass, low to high.
Codes: A = LMNA splice mod; B = JMJD2E inh; C = G9a inh; D = Sfp PPTase inh; E = ALDH1A1 block; F = miR-21 FLuc
compound: COc1ccc(C(=O)c2ccccc2)c(O)c1
  A: ?; B: 9%; C: 5%[12.7 µM]; D: -22%; E: 32µM*!; F: -23%
compound: COc1cccc2c1C(=O)CC(c1ccccc1)O2 (stereo unspecified)
  A: .; B: ?; C: .; D: -11%; E: ?; F: .
compound: COc1ccc(-n2cc(C(=O)c3ccccc3O)cn2)cc1
  A: .; B: ?; C: 77%; D: -26%; E: ?; F: 17%

(list continues)
Codes: A = LMNA splice mod; B = JMJD2E inh; C = G9a inh; D = Sfp PPTase inh; E = ALDH1A1 block; F = miR-21 FLuc
compound: COC(=O)c1oc(-c2ccccc2)nc1C
  A: .; B: -28%; C: 3%; D: 11%; E: 0%; F: -5%
compound: COC(=O)c1oc(-c2ccc(Cl)cc2)nc1C
  A: ?; B: -10%; C: -6%; D: -3%; E: 25µM*; F: -12%
compound: Cc1noc(C)c1-c1ccc2ncnc(N(C)Cc3ccco3)c2c1
  A: ?; B: -19%; C: .; D: -20%; E: 5%; F: .
compound: CCOc1ccc2c(=O)c(Oc3ccccc3OCC)coc2c1
  A: -13%; B: 4%; C: -1%[59 µM]; D: -5%; E: 4%; F: -16%
compound: CCOc1ccccc1Oc1coc2cc(OCC(=O)O)ccc2c1=O
  A: ?; B: -11%; C: 14µM*; D: 23%; E: 5%; F: -4%
compound: COc1cccc(C(=O)NCC2OCCc3ccccc32)c1 (stereo unspecified)
  A: .; B: .; C: 4%[59 µM]; D: .; E: .; F: -39%
compound: Fc1ccc(-c2cc(C(F)(F)F)n3ncnc3n2)cc1
  A: 18%[46 µM]; B: ?; C: 13µM*; D: 9%; E: ?; F: -1%
compound: FC(F)(F)c1cc(-c2cccc(Br)c2)nc2ncnn12
  A: .; B: .; C: 26%[59 µM]; D: .; E: .; F: -20%
compound: O=c1[nH]c2cc3c(cc2cc1CN(CCO)S(=O)(=O)c1ccccc1)OCCO3
  A: .; B: ?; C: -1%; D: 22%; E: .; F: -1%
compound: Cc1ccc(C2=NS(=O)(=O)N(C)C(C(=O)Nc3ccc(F)cc3F)=C2)cc1
  A: .; B: .; C: 71µM*; D: -1%; E: .; F: 2%
